Measurements reported in patent publication US10584115B2, “Substituted pyridine and pyrazine BMI-1 inhibitors” (PTC Therapeutics, Inc., priority 2013, dated 2020).

Test system: Bmi-1 protein
Test: Sandwich ELISA Assay (Bmi-1 protein level in HT-1080 cells after compound treatment)
Type: cell-based
Settings: read-out: ELISA EC50 value for Bmi-1 protein, Table 1, Bmi-1 sandwich ELISA
Experimental: Cell Seeding and Compound Treatment (Day 1):
HT-1080 cells were seeded at 8000 cells/well (50 μL) in 96-well tissue culture plates. After the cells became adherent (3-4 hours), 2× diluted stocks of test compounds in 50 μL DMEM containing 1% DMSO (final DMSO concentration was 0.5%) were added and the plates were incubated at 37° C. under 5% CO2 for 40-48 hours.
ELISA Plate First Antibody Preparation (Day 2):
The First Antibody (Millipore Mouse, monoclonal to mouse Bmi-1, clone F6, catalog #05-637) diluted to […] in PBS was added (100 μL) to each well of a Nunc MaxiSorp 96-well ELISA plate. The plate was covered with a plate seal and allowed to stand overnight.
Cell Lysate Preparation (Day 3):
Fresh Lysis buffer (1×) was prepared on the day of the assay as follows: 1 mM EDTA, 150 mM NaCl, 0.5% Triton-X 100, 10 mM NaF, 20 mM B-Glycerophosphate, 1 mM DTT (in PBS, pH 7.2-7.4) and HALT protease inhibitor cocktail (lx) (Pierce #78410).
A standard curve was prepared at the following Bmi-1 concentrations: 8000, 4000, 2000, 1000, 500, 250, 125 and 0 pg/mL. […]
The plate was washed and blotted dry, then a previously prepared TMB substrate (TMB substrate kit, Pierce catalog #34021) (prepared by mixing kit reagents 1:1) (100 μL) was added per well. […] The plates were read at OD450 (experimental) and OD570 (reference).

Q: Which EC50 does the source give for `COc1ccc(Nc2cncc(-c3c(C(F)(F)F)nc4ccccn34)n2)cc1` [Cpd 5, N-(4-methoxyphenyl)-6-[2-(trifluoromethyl)imidazo[1,2-a]pyridin-3-yl]pyrazin-2-amine] here?
A: < 1 nM
